High-throughput results from PubChem.
An excerpt weighted towards active compounds, which were near 13% of everything screened.
ALDH1A1 inh – blocks purified human ALDH1A1 activity; P00352; Purified ALDH1A1, NADH fluorescence, propionaldehyde substrate; Potency, µM (titrated, usually from 75.3 µM), actives largely listed as inhibitors; 220,000 tested, 7.3% active; AID 1030; active = well fitted inhibition curve with a large enough effect, not every such curve was filed as active; inconclusive = small, poorly fitted or top-dose-only effect, or another doubt; inactive = no such curve, though single readings can be large or run the other way
Lamin A splicing – modulators of lamin A splicing. AID 1487. HeLa LMNA splicing GFP/RFP minigene ratio, 48 h. Potency, µM (doses to about 46.1 µM), actives largely listed as inhibitors. 200,000 tested, 0.01% active; active = well fitted inhibition curve with a large enough effect in the signal ratio, with a control signal flat, not every such curve was filed as active; inconclusive = small, poorly fitted or top-dose-only effect, or effect the other way, or a change in a side signal; the % refers to the signal ratio
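S3 HeLa cells stably expressing lamin A-EGFP splicing minigene plus DsRed2, 600 cells/well, 48 h compound exposure at 37C. Laser-scanning cytometry; analysed as GFP (500-530 nm)/RFP (575-640 nm) total intensity ratio; 0.5% DMSO vehicle.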
miR-21 reporter – raises the signal of a miR-21 reporter | AID 2288 | 340,000 tested, under 10 active | Potency, µM (series often up to 38.3 µM) | HeLa miR-21 FLuc reporter, luciferase, 48 h; active = well fitted rising curve with a large enough effect; inconclusive = small, poorly fitted or top-dose-only effect; inactive = no such curve, though single readings can be large or run the other way;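 further: miR-21 action dims this reporter so a rising signal means less miR-21 action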
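HeLa cells endogenously expressing miR-21, stably carrying CMV-driven firefly luciferase with a downstream miR-21 binding site, 2000 cells/well. Titrations up to approximately 40 uM, 48 hours; luciferase luminescence read.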
JMJD2E inh – JMJD2E (human) inhibition. 230,000 tested, 1.6% active. JMJD2E catalytic domain, FDH-coupled NADH fluorescence (FDH is formaldehyde dehydrogenase). AID 2147. Potency, µM (doses to about 57.1 µM), actives largely listed as inhibitors. B2RXH2; active = well fitted inhibition curve with a large enough effect, not every such curve was filed as active; inconclusive = small, poorly fitted or top-dose-only effect, or another doubt; inactive = no such curve, though single readings can be large or run the other way; note: nearly all actives have a fitted effect of over 50% in size
G9a inh – blocks human histone lysine methyltransferase G9a. Q96KQ7. G9a H3K9 monomethylation, AlphaScreen, 2 h. Potency, µM (top dose mostly 102 µM), most hits filed as inhibitors. 350,000 tested, 8.8% active. AID 504332; note: nearly all actives have a fitted effect of over 75% in size
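G9a (20 nM) was preincubated 15 min with compound, then reacted 2 h at room temperature with 500 nM biotin-H3K9 peptide and 20 µM SAM. Monomethyl-H3K9 detected by AlphaScreen using anti-H3K9me1 antibody.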
Sfp PPTase inh – inhibitors of Bacillus subtilis Sfp phosphopantetheinyl transferase; Biochemical Sfp PPTase activity, qHTS; Q9F4F7; AID 1490; Potency, µM, actives largely listed as inhibitors; 310,000 tested, 3.5% active;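 note: the enzyme is Sfp with the accession as filed and its product quenches rhodamine fluorescence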
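Fluorescence-quenching assay with 15 nM Sfp, 5 uM rhodamine-CoA and 12.5 uM BHQ-2-labelled ybbR peptide in pH 7.6 Hepes/MgCl2 buffer. Enzyme was pre-incubated with compound for 15 min at room temperature. Rate was taken from the 30-min fluorescence change (525/598 nm).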
Hits are given with their value; i = inactive; ? = inconclusive; nt = no result; [ ] = another dose, or the depositor's remark. Unless noted, calls come from the whole dose curve; as a rule, active = well fitted curve in the direction sought with a large enough effect; inconclusive = small, poorly fitted or top-dose-only effect, or another doubt; inactive = no such curve, though single readings can be large; an effect the other way counts as inactive or inconclusive.

SMILES	ALDH1A1 inh	Lamin A splicing	miR-21 reporter	JMJD2E inh	G9a inh	Sfp PPTase inh
COc1ccccc1CNC(=O)Cn1ncn2c(cc3sccc32)c1=O	nt	nt	i	nt	i	nt
O=C(c1ccco1)N(Cc1ccc([N+](=O)[O-])cc1)c1ccc(Br)cc1	?	i[0.0737 µM]	i	i	i[0.501 µM]	i
O=C(c1ccco1)N(Cc1ccccc1)c1cccc([N+](=O)[O-])c1	20µM	nt	i	?	i	i
O=C(c1ccco1)N(Cc1cccc([N+](=O)[O-])c1)c1ccc(Br)cc1	22.4µM	nt	i	i	nt	?
NC(=O)C(=O)O	i	i	nt	i	i	nt
CCC(Cc1ccccc1)NC(=O)Cn1ncc2c3ccccc3n(Cc3ccccc3)c2c1=O (stereo not drawn)	nt	nt	i	nt	i	nt
Cn1c2ccccc2c(=O)c2ccc(C#CC3(O)CCCCC3)cc21	nt	nt	i	nt	79.4µM	i
COc1ccc(/C=C/C(=O)c2ccc3ccccc3c2O)cc1CN1CCOCC1	i	i	i	?	6.31µM	?
Oc1c(CN2CCOCC2)ccc2ccccc12	?	?	i	?	2.24µM	i
Oc1c(CN2CCOCC2)cc(-c2ccccc2)cc1CN1CCOCC1	i	i	i	i	i	i
CN=c1scc(-c2ccc([N+](=O)[O-])cc2)n1/N=C/c1ccco1	i	nt	i	i	50.1µM	i
O=C1c2ccc([N+](=O)[O-])cc2NC(c2ccco2)N1/N=C/c1ccco1 (stereo not drawn)	nt	nt	i	i	?	?
O=C(O)C1CCN(S(=O)(=O)Cc2ccccc2)CC1	nt	nt	i	nt	?	i
Cc1ccc(C(=O)Sc2cccccc2=O)cc1	nt	nt	?	nt	10µM	50.1µM
Cc1ccc(C(=O)CC(=O)c2ccccc2)cc1	nt	nt	i	nt	i	i
O=C(NC(C(=O)c1ccccc1)n1c(=O)cc[nH]c1=S)c1ccccc1 (stereo not drawn)	?	i	i	i	14.1µM	?
CCCC(O)(CCN1CCCCC1)c1ccc(OCC)cc1 (stereo not drawn)	0.891µM	i	i	i	i	i
COc1ccc(C(O)(CCN2CCCCC2)C2CCCCC2)cc1 (stereo not drawn)	nt	nt	i	nt	50.1µM	i
O[C@@](CCN1CCCC1)(c1ccccc1)C1CCCCC1	i	?	nt	i	i[21.5 µM]	i
CCCCCC(O)(CCN1CCCCC1)c1ccc(OCC)cc1 (stereo not drawn)	1.78µM	nt	i	i	i	i
CCC(O)(CCN1CCCCC1)c1ccccc1 (stereo not drawn)	i	i	i	i	i	i
COC(=O)[C@@H]1C[C@@]2(O)[C@H](O)[C@H](O)[C@H](O)C[C@H]2N1CC(c1ccccc1)c1ccccc1	?	nt	i	i	i[12.7 µM]	i
Cc1ccc(S(=O)(=O)c2nc(-c3cccc(C)c3)oc2N2CCCCC2)cc1	nt	nt	i	nt	?	nt
O=P(c1ccccc1)(c1ccccc1)c1nc(-c2ccc(Cl)cc2)oc1N1CCOCC1	?	?	?	3.16µM	?	?
COc1cccc(-c2nc(S(=O)(=O)c3ccc(C)cc3)c(N3CCCCCC3)o2)c1	nt	nt	i	nt	i	nt
SMILES	ALDH1A1 inh	Lamin A splicing	miR-21 reporter	JMJD2E inh	G9a inh	Sfp PPTase inh
Cc1ccc(-c2nc(S(=O)(=O)c3ccc(Cl)cc3)c(N3CCCCC3)o2)cc1	nt	nt	i	nt	2.82µM	nt
COc1ccc(-c2nc(S(=O)(=O)c3ccc(C)cc3)c(N3CCCCC3)o2)cc1	nt	nt	i	nt	3.55µM	nt
COc1ccc(-c2nc(S(=O)(=O)c3ccccc3)c(N3CCOCC3)o2)cc1	22.4µM	i	i	i	?	i
CC(C)(C)c1ccc(-c2nc(S(=O)(=O)c3ccccc3)c(N3CCOCC3)o2)cc1	nt	nt	i	nt	?	nt
O=c1[nH]cnc2c1nc(Cl)n2C1OC(CO)C(O)C1O (stereo not drawn)	i	i	nt	i	nt	i
C[C@H](N)C(=O)N[C@@H](Cc1ccc(F)cc1)C(=O)N[C@@H](CCCN=C(N)N)C(=O)N[C@@H](CC1CCCCC1)C(=O)N[C@@H](CCCCN=C(N)N)C(=O)N[C@@H](Cc1ccc(O)cc1)C(N)=O	nt	nt	nt	nt	nt	i
CCCCC1CN2CCc3c([nH]c4ccccc34)C2(C)C1 (stereo not drawn)	nt	nt	i	nt	79.4µM	i
CCCCN1CCc2c([nH]c3ccccc23)C1=O	?	i	i	?	i[12.7 µM]	i
CC1CCN(CCCNC(=O)C2CC(=O)N(CCc3ccccc3)C2)CC1 (stereo not drawn)	nt	nt	i	nt	i	i
OC[C@@H]1OC(O)[C@@H](O)[C@H](O)[C@@H]1O (stereo partly drawn)	nt	nt	nt	nt	nt	i
CN1CCN(Cc2nc3ccccc3c(=O)n2Cc2nc(-c3ccccc3F)cs2)CC1	i	i	i	i	35.5µM	?
CN1CCN(Cc2nc3ccccc3c(=O)n2Cc2nc(-c3cccc([N+](=O)[O-])c3)cs2)CC1	?	nt	i	i	25.1µM	i
CN1CCN(Cc2nc3ccccc3c(=O)n2Cc2nc(-c3ccc4ccccc4c3)cs2)CC1	?	?	?	i	?	i
COc1cccc(NC(=O)Cn2nc3c4ccccc4n(Cc4cccc(F)c4)cc-3c2=O)c1	nt	nt	i	nt	i	nt
Cc1cc(NC(=O)c2cc(-c3ccc(F)cc3)on2)nn1Cc1ccc(Cl)cc1	nt	nt	i	nt	i	nt
CCN(CC)C(=O)Cn1cc(C(=O)C(=O)N2CCN(c3ccc(OC)cc3)CC2)c2ccccc21	nt	nt	i	nt	50.1µM	i
CCN(CC)C(=O)Cn1cc(C(=O)C(=O)N2CCN(c3ccc([N+](=O)[O-])cc3)CC2)c2ccccc21	nt	nt	i	nt	i	i
O=C(C(=O)N1CCc2ccccc2C1)c1cn(CC(=O)N2CCCC2)c2ccccc12	i	i	i	i	i	i
CCN(CC)C(=O)C(=O)c1cn(CC(=O)N2CCc3ccccc3C2)c2ccccc12	0.708µM	nt	i	i	?	i
CCOC(=O)c1[nH]c(C)c(C(=O)N2CCN(c3ccccc3)CC2)c1C	i	?	i	i	i[2.33 µM]	i
COc1ccc(N2CCN(C(=O)C(=O)c3c(C)[nH]c4ccccc34)CC2)cc1	nt	nt	i	nt	39.8µM	i
CC(=O)c1ccc(N2CCN(C(=O)C(=O)c3c(C)[nH]c4ccccc34)CC2)cc1	nt	nt	i	nt	i	i
CCOC(=O)c1c(C)[nH]c(C(=O)N2CCN(c3ccc(OC)cc3)CC2)c1C	i	nt	i	i	44.7µM	i
COc1ccc(NC(=O)NC(C)C2CC3CCC2C3)cc1 (stereo not drawn)	?	nt	i	i	i	i
COc1ccc(OC)c(CCNC(=O)CS(=O)(=O)Cc2nc(-c3cccc(Cl)c3)oc2C)c1	nt	nt	i	nt	i	nt
SMILES	ALDH1A1 inh	Lamin A splicing	miR-21 reporter	JMJD2E inh	G9a inh	Sfp PPTase inh
CCc1ccc(-c2ccc(C(=O)O)cc2)nc1	i	i	i	i	i	i
CCC(=Cc1ccc(CC)cn1)CC	i	nt	i	?	39.8µM	i
COC(=O)c1ccccc1NC(=O)c1cccs1	i	i	i	i	i	i
CNc1ccccc1C(=O)OC	nt	nt	i	22.4µM	i	i
COC(=O)c1ccccc1NC(=O)/C=N/O	i	i	i	i	i[12.7 µM]	i
CNc1ccccc1C(=O)OCC(C)=O	i[13.5 µM]	i	i	?	i	i
